Test results published in PubChem BioAssay AID1439 (NMMLSC, 2008).
The list shows a part of the results, in another mix than the full data. Records with an inconclusive call do not appear. Calls of active or inactive are those of the source. Cut-off read from the data, not from the text of the source: active = binding response below about 49% or above about 150%; inconclusive = no clear call, values can overlap the other calls; inactive = in between.

Chains of the proteins cited; added tags and fusions are not shown.
UniProt P09471, whole entry: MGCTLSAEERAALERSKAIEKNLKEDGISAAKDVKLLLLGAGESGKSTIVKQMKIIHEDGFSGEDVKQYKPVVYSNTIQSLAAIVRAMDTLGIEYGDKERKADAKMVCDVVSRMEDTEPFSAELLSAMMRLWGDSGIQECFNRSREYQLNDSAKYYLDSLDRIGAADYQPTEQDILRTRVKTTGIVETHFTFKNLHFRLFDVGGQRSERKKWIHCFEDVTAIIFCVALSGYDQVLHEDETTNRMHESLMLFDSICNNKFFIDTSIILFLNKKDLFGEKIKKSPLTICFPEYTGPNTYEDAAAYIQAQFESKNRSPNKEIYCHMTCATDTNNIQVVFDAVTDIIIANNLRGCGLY

Each molecule was assayed against Guanine nucleotide-binding protein G(o) subunit alpha (Homo sapiens) (UniProt P09471) (assay: RGS7-Galphao binding modulators, primary screen, biochemical, multiplexed bead flow cytometry (AID 1439;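 note: fluorescent Galphao held in activated GDP-AlF4 state binding bead-coupled RGS7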)). Details: at 10 µM, actives lie on both sides.

SMILES | binding response (% of control)
COc1ccc(NC2CCN(CCc3ccccc3)CC2)c(OC)c1 | inactive: 103%
O=C(NCC1(N2CCOCC2)CCCCC1)c1cc2ccccc2o1 | active: 177%
CCOC(=O)N1CCC(Nc2ccc(OC)cc2)CC1 | inactive: 99.2%
O=C(OC1CN2CCC1CC2)C1c2ccccc2Oc2ccccc21 (stereo not drawn) | inactive: 101%
COc1ccc(C(=O)NCC2(N3CCCCC3)CCCCC2)c(OC)c1OC | inactive: 100%
COc1ccc(CN(CCCl)CCCl)cc1Cl | inactive: 94.2%
CC(C)c1ccc(NC2CCN(C(=O)OC(C)(C)C)CC2)cc1 | inactive: 99%
COc1ccc(NC2CCN(C(=O)OC(C)(C)C)CC2)cc1 | inactive: 96.5%
CN1CCN(CCOC(=O)C(O)(c2ccccc2)c2ccccc2)CC1 | inactive: 99.8%
O=C(NCC1(N2CCOCC2)CCCCC1)c1cc(=O)[nH]c2ccccc12 | inactive: 103%
O=C(NCC1(N2CCCCC2)CCCCC1)c1cccc([N+](=O)[O-])c1 | inactive: 101%
N#CC1(Nc2ccccc2)CCN(CCc2ccccc2)CC1 | inactive: 100%
c1ccc(CN2CCC(Nc3ccccc3)CC2)cc1 | inactive: 98.4%
N#Cc1ccc(C(=O)NCC2(N3CCCCC3)CCCCC2)cc1 | inactive: 103%
N/C(=N\O)c1c(N)no[n+]1[O-] | inactive: 99.6%
O=C(OC1CN2CCC1CC2)C1c2ccccc2C=Cc2ccccc21 (stereo not drawn) | inactive: 102%
COc1ccc(C(=O)NCC2(N3CCOCC3)CCCCC2)cc1OC | inactive: 133%
CCC(CO)(C(=O)OC1CN2CCC1CC2)c1ccccc1 (stereo not drawn) | inactive: 98.9%
CCOc1ncccc1C(=O)NCC1(N2CCOCC2)CCCCC1 | inactive: 122%
CC(C)(C)OC(=O)N1CCC(Nc2ccccc2)CC1 | inactive: 96%
CCN1CCC(Nc2cccc(F)c2)CC1 | inactive: 98.7%
CN(C)c1ccc(C(=O)NCC2(N3CCCCC3)CCCCC2)cc1 | inactive: 98%
Fc1ccccc1NC1CCN(Cc2ccccc2)CC1 | inactive: 95.2%
